ChEMBL document CHEMBL4842321, “Novel benzenesulfonamides aryl and arylsulfone conjugates adopting tail/dual tail approaches: Synthesis, carbonic anhydrase inhibitory activity and molecular modeling studies” (Eur J Med Chem, 2021)

Organism: Homo sapiens
Assay: Selectivity index. ratio of IC50 for Antiproliferation activity against human MCF-10A to IC50 for Antiproliferation activity against human MCF7

O=c1[nH]cc(F)c(=O)[nH]1 [FLUOROURACIL]
Selectivity Index: 1.38
